This series can be described thus: Urinary excretion of CGA and metabolites after 400 mg green coffee extract, ten volunteers. It counts as in vivo, human. Conditions: subject 6, 0-8 h after consumption. How it is done: In a further phase of the study, ten non-smoker volunteers (22-55 y), five male and five female, were recruited. Subjects were instructed to avoid consumption of phenolic-containing foods during the 48 h prior to the study. They were asked to eat only animal foods, refined cereal foods and artificial beverages. On the day of the study, after 10-12 h overnight fasting, an I.V. catheter was inserted into the antecubital vein and a baseline heparinized blood sample was obtained. […] Blood samples were collected into heparin-containing tubes. Baseline blood aliquots were used to determine hematocrit and hemoglobin levels by standard methods. Plasma samples were obtained by centrifugation of the blood samples immediately after being drawn. Urine samples were also collected at baseline interval (minus 2-0 h) and at intervals of 0-2 h; 2-4 h; 4-6 h and 6-8 h after coffee consumption into appropriate plastic containers. Total urine volume was measured for each collection period. Plasma and urine aliquots for determination of CGA were acidified with HCl and kept frozen in liquid nitrogen until analyses. Urine aliquots for determination of creatinine were acidified with HCl and kept at −20° C. until analyses.
Results of CGA and phenolic acids in urine were normalized by creatinine excretion.

Consider `O=C(O)c1cc(O)c(O)c(O)c1` [Gallic Acid], for which the total urinary excretion stood at 115.87 µmol.

Source of the values: patent US10092613B2 (NATUREX, S.A., priority 2008, dated 2018).
